From patent US8058008B2, “Method for extracting quantitative information relating to an influence on a cellular response” (Fisher Bioimage APS, priority 1997, dated 2011)

System: PKCα-F64L-S65T-GFP fusion
Details: carbachol stimulation of M1-BHK cells

C[N+](C)(C)CCOC(N)=O [carbachol]
translocation of PKCα-F64L-S65T-GFP: dose-dependent transient translocation from the cytoplasm to the plasma membrane
